Assay results taken from US10266550B2, “Bacterial topoisomerase I inhibitors with antibacterial activity” (The Florida International University Board of Trustees, priority 2016, dated 2019).

Chains of the proteins cited; added tags and fusions are not shown. Lines headed by an entry give the natural chain unless they say otherwise; changes in a name come on top.
UniProt P06612: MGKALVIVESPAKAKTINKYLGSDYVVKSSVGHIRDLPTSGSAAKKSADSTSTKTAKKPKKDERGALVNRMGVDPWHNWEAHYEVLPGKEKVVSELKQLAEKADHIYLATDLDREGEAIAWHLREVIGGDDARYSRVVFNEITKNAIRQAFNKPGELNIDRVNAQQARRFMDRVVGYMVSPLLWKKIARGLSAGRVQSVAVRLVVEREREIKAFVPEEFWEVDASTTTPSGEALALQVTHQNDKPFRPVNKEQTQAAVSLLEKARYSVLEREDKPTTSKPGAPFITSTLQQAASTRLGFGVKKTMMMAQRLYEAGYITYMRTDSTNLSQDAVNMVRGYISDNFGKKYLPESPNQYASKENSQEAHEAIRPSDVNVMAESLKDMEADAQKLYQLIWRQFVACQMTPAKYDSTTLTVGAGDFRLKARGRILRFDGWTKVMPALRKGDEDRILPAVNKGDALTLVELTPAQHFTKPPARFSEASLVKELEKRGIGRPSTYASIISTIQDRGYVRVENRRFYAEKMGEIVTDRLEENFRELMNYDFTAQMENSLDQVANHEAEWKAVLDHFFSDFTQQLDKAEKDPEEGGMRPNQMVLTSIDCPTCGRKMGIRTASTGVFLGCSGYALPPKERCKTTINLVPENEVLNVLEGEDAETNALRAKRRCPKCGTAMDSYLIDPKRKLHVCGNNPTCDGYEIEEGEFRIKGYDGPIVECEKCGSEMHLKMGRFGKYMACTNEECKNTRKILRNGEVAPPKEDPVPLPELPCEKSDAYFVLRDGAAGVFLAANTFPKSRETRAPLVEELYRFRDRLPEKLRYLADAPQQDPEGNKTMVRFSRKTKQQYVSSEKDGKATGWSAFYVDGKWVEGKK
UniProt P11387: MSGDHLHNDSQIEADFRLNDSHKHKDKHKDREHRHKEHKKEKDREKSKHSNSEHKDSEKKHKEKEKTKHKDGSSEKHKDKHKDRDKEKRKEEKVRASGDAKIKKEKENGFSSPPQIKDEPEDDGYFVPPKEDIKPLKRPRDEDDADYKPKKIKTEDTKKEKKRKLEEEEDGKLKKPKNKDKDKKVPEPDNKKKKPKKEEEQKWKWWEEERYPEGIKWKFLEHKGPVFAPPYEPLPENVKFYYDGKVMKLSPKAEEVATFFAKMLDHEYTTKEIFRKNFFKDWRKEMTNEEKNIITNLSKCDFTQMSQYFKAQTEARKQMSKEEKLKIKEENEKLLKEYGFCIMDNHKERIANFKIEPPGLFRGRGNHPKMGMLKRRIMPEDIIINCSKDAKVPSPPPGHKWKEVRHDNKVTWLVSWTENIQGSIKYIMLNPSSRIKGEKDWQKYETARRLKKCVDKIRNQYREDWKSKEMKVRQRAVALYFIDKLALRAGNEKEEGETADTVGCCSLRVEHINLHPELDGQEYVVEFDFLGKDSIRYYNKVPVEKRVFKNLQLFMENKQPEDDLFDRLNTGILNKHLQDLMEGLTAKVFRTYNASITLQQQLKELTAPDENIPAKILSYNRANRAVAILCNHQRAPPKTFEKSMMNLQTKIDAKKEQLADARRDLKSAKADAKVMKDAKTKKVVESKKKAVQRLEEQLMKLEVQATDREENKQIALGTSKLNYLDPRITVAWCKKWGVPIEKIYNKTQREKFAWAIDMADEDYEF
UniProt P11388: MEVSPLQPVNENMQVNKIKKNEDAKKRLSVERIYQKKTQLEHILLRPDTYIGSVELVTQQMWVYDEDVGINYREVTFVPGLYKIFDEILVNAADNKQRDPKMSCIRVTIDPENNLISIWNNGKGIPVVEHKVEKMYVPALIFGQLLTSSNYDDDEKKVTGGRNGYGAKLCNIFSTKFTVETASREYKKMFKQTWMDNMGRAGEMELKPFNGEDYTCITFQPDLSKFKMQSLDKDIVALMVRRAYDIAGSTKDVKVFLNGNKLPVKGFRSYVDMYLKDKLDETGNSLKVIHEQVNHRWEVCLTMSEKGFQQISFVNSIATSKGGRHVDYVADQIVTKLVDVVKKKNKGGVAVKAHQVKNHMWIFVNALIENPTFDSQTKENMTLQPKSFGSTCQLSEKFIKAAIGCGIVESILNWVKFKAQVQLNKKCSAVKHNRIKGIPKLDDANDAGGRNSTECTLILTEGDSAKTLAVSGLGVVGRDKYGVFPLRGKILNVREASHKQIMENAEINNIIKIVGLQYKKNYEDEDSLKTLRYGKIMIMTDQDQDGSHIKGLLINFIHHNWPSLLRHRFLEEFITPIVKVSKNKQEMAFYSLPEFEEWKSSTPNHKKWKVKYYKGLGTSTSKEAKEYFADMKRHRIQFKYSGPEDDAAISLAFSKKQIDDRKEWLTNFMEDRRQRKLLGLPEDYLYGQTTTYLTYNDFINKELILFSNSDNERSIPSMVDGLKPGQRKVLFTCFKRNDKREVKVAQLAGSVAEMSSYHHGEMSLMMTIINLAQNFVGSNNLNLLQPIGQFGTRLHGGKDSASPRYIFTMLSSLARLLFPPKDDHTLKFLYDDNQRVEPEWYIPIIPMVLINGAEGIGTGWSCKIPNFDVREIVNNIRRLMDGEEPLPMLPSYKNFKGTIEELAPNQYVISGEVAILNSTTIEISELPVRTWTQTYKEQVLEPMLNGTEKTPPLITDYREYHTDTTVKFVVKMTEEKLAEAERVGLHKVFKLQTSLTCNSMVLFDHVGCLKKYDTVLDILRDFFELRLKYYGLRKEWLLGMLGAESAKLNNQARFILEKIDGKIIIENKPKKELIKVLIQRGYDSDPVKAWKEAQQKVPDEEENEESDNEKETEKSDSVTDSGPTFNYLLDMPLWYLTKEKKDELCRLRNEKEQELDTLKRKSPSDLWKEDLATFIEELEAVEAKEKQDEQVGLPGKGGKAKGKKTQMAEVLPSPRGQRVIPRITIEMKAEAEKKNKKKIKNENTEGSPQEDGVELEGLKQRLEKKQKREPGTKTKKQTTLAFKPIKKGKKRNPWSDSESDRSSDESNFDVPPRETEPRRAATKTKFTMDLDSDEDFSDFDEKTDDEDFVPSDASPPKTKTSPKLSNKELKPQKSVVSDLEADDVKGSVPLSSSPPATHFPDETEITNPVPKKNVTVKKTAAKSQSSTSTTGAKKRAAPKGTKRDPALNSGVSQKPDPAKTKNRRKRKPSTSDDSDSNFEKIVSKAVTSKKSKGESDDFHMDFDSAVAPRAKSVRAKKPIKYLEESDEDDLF

Experiments:
Assay type in all cases: biochemical
[1] = molecular target: E. coli topoisomerase I (Escherichia coli (strain K12), UniProt P06612); conditions: experimental, converted from IC50
Procedure: (§1) Recombinant E. coli topoisomerase I and gyrase expressed in E. coli were purified as described previously.
E. coli Topoisomerase I Relaxation Activity Inhibition Assay
The relaxation activity of E. coli topoisomerase I was assayed in a buffer containing 10 mM Tris-HCl, pH 8.0, 50 mM NaCl, 0.1 mg/mL gelatin, and 0.5 mM MgCl2. Half microliter from the appropriate stock solutions of compounds dissolved in the solvent (DMSO) or the solvent alone (control) was mixed with 9.5 μL of the reaction buffer containing 10 ng of enzyme before the addition of 10 μL of reaction buffer containing 200 ng of supercoiled pBAD/Thio plasmid DNA purified by cesium chloride gradient as substrate. Following incubation at 37° C. for 30 min, the reactions were terminated by the addition of 4 μL of a stop buffer (50% glycerol, 50 mM EDTA, and 0.5% (v/v) bromophenol blue), and analyzed by agarose gel electrophoresis. The gels were stained in ethidium bromide and photographed under UV light.

[2] = molecular target: Human topoisomerase I (Homo sapiens (Human), UniProt P11387); assay: Human topoisomerase I relaxation inhibition assay; conditions: read-out: Topoisomerase inhibitory activity (IC50) Human topo I (type IB)
Procedure: Human topoisomerase I relaxation assays were carried out with 0.5 U of enzyme in reaction buffer supplied by the manufacturer. The enzyme was mixed with the indicated concentration of compound dissolved before 200 ng of supercoiled pBAD/Thio plasmid DNA was added in the same buffer, for a final volume of 20 μL. Following incubation at 37° C. for 30 minutes, the reactions were terminated with a buffer containing 5% SDS, 0.25% bromophenol blue, and 25% glycerol, and analyzed by agarose gel electrophoresis.
Human topoisomerase I and topoisomerase IIα were purchased from TopoGen (Buena vista, CO, USA).

[3] = molecular target: Human topoisomerase IIα (Homo sapiens (Human), UniProt P11388); assay: Human topoisomerase IIα decatenation inhibition assay; conditions: kDNA decatenation; read-out: Topoisomerase inhibitory activity (IC50) Human topo IIα (type IIA)
Procedure: Human topoisomerase I and topoisomerase IIα were purchased from TopoGen (Buena vista, CO, USA). […] The reactions were then analyzed by electrophoresis in 1% agarose gels containing […] ethidium bromide before being photographed under UV light.

[4] = molecular target: E. coli DNA gyrase (Escherichia coli (strain K12), UniProt P0AES4+P0AES6); assay: DNA gyrase supercoiling inhibition assay; conditions: supercoiling of relaxed DNA; read-out: Topoisomerase inhibitory activity (IC50) E. coli DNA gyrase (type IIA)
Procedure: as §1
DNA gyrase supercoiling assays were carried out by mixing the compounds and the enzyme in a similar manner as above (EcTopI relaxation inhibition assay) but in a gyrase assay buffer (35 mM Tris-HCl, 24 mM KCl, 4 mM MgCl2, 2 mM DTT, 1.75 mM ATP, 5 mM spermidine, 0.1 mg/mL BSA, 6.5% glycerol at pH 7.5), followed by the addition of 300 ng of relaxed covalently closed circular DNA (New England Biolabs, Ipswich, Mass., USA) to a final reaction volume of 20 μL. The samples were incubated at 37° C. for 30 minutes before being terminated by the addition of a buffer containing 5% SDS, 0.25% bromophenol blue, and 25% glycerol. The reactions were then analyzed by agarose gel electrophoresis.

Compound	PIC50 (pIC50 = −log IC50) [1]	IC50 [2] [µM]	IC50 [3] [µM]	IC50 [4] [µM]
Nc1ccc2c(c1)Oc1c(NCCN3CCOCC3)c(F)cc3c(=O)c(C(=O)O)cn-2c13 [Compound 11h, 9-Amino-5-fluoro-6-((2-morpholinoethyl)amino)-3-oxo-3H-pyrido[3,2,1-kl]phenoxazine-2-carboxylic acid]	6.01	–	–	–
Nc1ccc2c(c1)Oc1c(N3CC[C@H](N)C3)c(F)cc3c(=O)c(C(=O)O)cn-2c13 [Compound 17a, (S)-9-amino-6-(3-aminopyrrolidin-1-yl)-S-fluoro-3-oxo-3H-pyrido[3,2,1-kl]phenoxazine-2-carboxylic acid]	–	3.9	0.97 to 195	–
Nc1ccc2c(c1)Oc1c(N3CC[C@@H](N)C3)c(F)cc3c(=O)c(C(=O)O)cn-2c13 [Compound 17b, (R)-9-amino-6-(3-aminopyrrolidin-1-yl)-5-fluoro-3-oxo-3H-pyrido[3,2,1-kl]phenoxazine-2-carboxylic acid]	–	3.9	–	3.9
